Ten compounds from US6462038B1, “Androgen receptor modulator compounds and methods” (Ligand Pharmaceuticals, Inc., priority 1999, dated 2002) can be followed below.

Sequences of proteins named here, by UniProt entry; tags and fusion partners are left off. A change or cut given only in a name is not applied to a line headed by its entry.
UniProt P10275: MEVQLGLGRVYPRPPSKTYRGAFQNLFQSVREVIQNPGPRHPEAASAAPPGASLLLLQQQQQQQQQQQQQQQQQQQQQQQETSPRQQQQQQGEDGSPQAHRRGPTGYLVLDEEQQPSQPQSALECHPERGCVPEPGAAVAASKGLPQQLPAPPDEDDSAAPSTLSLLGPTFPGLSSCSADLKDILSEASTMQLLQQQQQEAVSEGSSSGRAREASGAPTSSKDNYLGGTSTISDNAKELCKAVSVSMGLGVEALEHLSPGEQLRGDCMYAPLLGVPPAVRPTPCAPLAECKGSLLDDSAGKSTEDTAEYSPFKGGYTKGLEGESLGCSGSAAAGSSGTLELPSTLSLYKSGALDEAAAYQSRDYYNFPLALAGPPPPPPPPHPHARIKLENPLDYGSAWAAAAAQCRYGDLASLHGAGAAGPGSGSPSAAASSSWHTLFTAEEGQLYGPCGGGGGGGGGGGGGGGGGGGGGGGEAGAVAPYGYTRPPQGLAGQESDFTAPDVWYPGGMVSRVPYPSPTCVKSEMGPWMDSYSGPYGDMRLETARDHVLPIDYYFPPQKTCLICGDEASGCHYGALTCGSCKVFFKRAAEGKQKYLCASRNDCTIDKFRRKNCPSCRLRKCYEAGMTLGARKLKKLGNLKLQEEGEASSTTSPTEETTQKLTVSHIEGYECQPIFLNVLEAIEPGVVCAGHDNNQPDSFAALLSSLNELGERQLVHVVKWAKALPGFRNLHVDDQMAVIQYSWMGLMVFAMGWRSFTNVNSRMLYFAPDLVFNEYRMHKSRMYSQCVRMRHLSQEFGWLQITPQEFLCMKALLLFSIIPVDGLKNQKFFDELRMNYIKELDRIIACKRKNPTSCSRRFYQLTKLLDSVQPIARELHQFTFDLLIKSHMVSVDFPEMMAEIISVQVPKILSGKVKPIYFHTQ

Assay [1] has as its target T1, hAR (Homo sapiens, UniProt P10275). Nature of the assay: co-transfection assay, AR antagonist (in presence of DHT), CV-1 cells. Format: cell-based.
Assay [2] addresses T1, hAR. Nature of the assay: co-transfection assay, AR agonist, CV-1 cells. Type of assay: cell-based.
Setting [3] is: read-out: AR Antagonist CV-1 Cells Potency, hAR in CV-1 cells, DHT at EC50.
[4] abbreviates: read-out: AR Agonist CV-1 Cells Potency, hAR in CV-1 cells.
Where [5] appears, read: read-out: AR Potency Agon, Table 2.

Structures are written as SMILES. Like-named read-outs stand apart in the source and are kept apart here.

On to `CC(C)CN1CCOc2cc3[nH]c(=O)cc(C(F)(F)F)c3cc21`, for which the IC50 on hAR [1] (setting [3]) is above 10000 nM. Moreover, the EC50 on hAR [2] (setting [4]) was found to be 2.6 nM. For the compound `CCCN1CCOc2cc3[nH]c(=O)cc(C(F)(F)F)c3cc21`, at hAR [2] (setting [4]), the EC50 amounted to 2.4 nM. For the compound `CC1CN(C)c2cc3c(C(F)(F)F)cc(=O)[nH]c3cc2O1` (racemic), the IC50 at hAR [1] (setting [3]) was above 10000 nM. Also, on hAR [2] (setting [4]), the EC50 worked out at 40 nM. Take `CCC1CN(C)c2cc3c(C(F)(F)F)cc(=O)[nH]c3cc2O1` (racemic): the IC50 at hAR [1] (setting [3]) is above 10000 nM. For the same compound, at hAR [2] (setting [4]), the EC50 was 39 nM.

With `CCC1CN(CC(F)(F)F)c2cc3c(C(F)(F)F)cc(=O)[nH]c3cc2O1` (racemic), the EC50 at hAR [2] (setting [4]) was 11 nM. As to `O=c1cc(C(F)(F)F)c2cc3c(cc2[nH]1)OCC(CO)N3CC(F)(F)F` (racemic) [Compound 130, (±)-1,2,3,6-Tetrahydro-2-(hydroxymethyl)-1-(2,2,2-trifluoroethyl)-9-(trifluoromethyl)-7H-[1,4]oxazino[3,2-g]quinolin-7-one], the IC50 at hAR [1] (setting [3]) is above 10000 nM. For the same compound, the EC50 at hAR [2] (setting [4]) turned out to be 8.9 nM. With `CN1CCOc2cc3[nH]c(=O)cc(C(F)(F)F)c3cc21` [Compound 101, 1,2,3,6-Tetrahydro-1-methyl-9-(trifluoromethyl)-7H-[1,4]oxazino[3,2-g]quinolin-7-one], the EC50 on hAR [2] (setting [4]) and on hAR [2] (setting [5]) was 18 nM in each case.

As to `CCN1CCOc2cc3[nH]c(=O)cc(C(F)(F)F)c3cc21` [Compound 103, 1-Ethyl-1,2,3,6-tetrahydro-9-(trifluoromethyl)-7H-[1,4]oxazino[3,2-g]quinolin-7-one], the IC50 at hAR [1] (setting [3]) worked out at 8000 nM; at hAR [1] (read-out: AR Potency Antag, Table 2) it was 8000 nM. Besides, the EC50 at hAR [2] (setting [4]) and at hAR [2] (setting [5]) was 6.4 nM in each case.

Take `O=c1cc(C(F)(F)F)c2cc3c(cc2[nH]1)OCCN3CC(F)(F)F` [Compound 105, 1,2,3,6-Tetrahydro-1-(2,2,2-trifluoroethyl)-9-(trifluoromethyl)-7H-[1,4]oxazino[3,2-g]quinolin-7-one]: the EC50 at hAR [2] (setting [4]) and at hAR [2] (setting [5]) was 3.5 nM throughout. On to `O=c1cc(C(F)(F)F)c2cc3c(cc2[nH]1)OCCN3` [Compound 120, 1,2,3,6-Tetrahydro-9-(trifluoromethyl)-7H-[1,4]oxazino[3,2-g]quinolin-7-one], for which the IC50 on hAR [1] (setting [3]) was found to be 112 nM.
